# Experimental data taken from patent US20150253323A1, “METHODS AND KITS FOR HIGH THROUGHPUT SCREENING FOR COMPOUNDS TARGETING DNA-BINDING AND RNA-BINDING PROTEINS” (The Florida International University Board of Trustees, priority 2014, published 2015).
# Tested on: HMGA2-FL814 interaction
# Assay: PDI-ELISA for HMGA2 binding to DNA oligomer FL814
# Design: species or system mammalian
# Details: 100 nM compound, 100 nM FL814, 1 μM HMGA2, 2×SSCT; OD450 without drug 1.44
substance,measurement,value
quinacrine mustard dihydrochloride,OD450 of the PDI-ELISA in the presence of the compound,1.82
